Laboratory results: patent publication US7358243B2, “Diazabicyclonane and-decane derivatives and their use as opioid receptor ligands” (dated 2008)

Amino acid sequences for entries named in this document (tags omitted). A change or cut given only in a name is not applied to a line headed by its entry.
UniProt P41145: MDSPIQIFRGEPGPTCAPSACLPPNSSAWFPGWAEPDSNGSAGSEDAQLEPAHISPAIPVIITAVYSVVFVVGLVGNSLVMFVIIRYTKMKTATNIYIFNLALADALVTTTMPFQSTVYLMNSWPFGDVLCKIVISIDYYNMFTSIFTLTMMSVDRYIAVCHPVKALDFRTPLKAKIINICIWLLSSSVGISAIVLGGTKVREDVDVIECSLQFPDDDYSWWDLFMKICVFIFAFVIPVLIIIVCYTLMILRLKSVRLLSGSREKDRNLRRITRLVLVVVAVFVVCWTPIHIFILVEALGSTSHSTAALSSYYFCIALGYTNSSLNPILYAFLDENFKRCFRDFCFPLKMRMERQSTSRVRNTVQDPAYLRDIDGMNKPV
UniProt P35372, whole entry, looked up: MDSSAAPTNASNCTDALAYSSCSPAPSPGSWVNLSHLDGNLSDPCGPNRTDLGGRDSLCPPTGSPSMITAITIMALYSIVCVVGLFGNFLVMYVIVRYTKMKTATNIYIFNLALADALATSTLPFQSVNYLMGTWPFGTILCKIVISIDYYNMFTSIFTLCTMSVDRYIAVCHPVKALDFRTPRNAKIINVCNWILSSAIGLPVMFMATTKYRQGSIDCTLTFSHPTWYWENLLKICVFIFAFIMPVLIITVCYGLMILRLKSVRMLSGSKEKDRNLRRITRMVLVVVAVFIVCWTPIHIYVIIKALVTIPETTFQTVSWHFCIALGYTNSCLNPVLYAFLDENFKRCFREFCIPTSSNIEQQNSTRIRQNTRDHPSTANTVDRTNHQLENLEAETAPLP

Columns and labels:
[1] = target: human recombinant opiate κ receptor (Homo sapiens, UniProt P41145); assay: Binding assay, human recombinant opiate κ receptor
guinea pig ileum = assay: Functional activity in guinea pig ileum
[2] = target: human recombinant opiate δ receptor (Homo sapiens, UniProt P41143); assay: Binding assay, human recombinant opiate δ receptor
[3] = target: human recombinant opiate μ receptor (Homo sapiens, UniProt P35372); assay: Binding assay, human recombinant opiate μ receptor; settings: for Ki: read-out: μ Ki

Compound	κ inhib at 10 μM [1] [% inhib at 10 μM]	functional activity (agonist character) (guinea pig ileum)	EC50 (guinea pig ileum; read-out: EC50 functional activity) [nM]	δ inhib at 10 μM [2] [% inhib at 10 μM]	μ inhib at 100 nM ([3]; 100 nM) [% inhib at]	Ki [3] [nM]
CCC(=O)N1CCC2CCCC(C1)N2CC=Cc1ccccc1 (racemic)	74	full agonist	68	35	63	–
CCC(=O)N1CCC2CCC(C1)N2CC=Cc1ccccc1 (racemic)	78	–	–	51	–	20
CCC(=O)N1C2CCC3CCN(C/C=C/c4ccccc4)CC321 (racemic)	22	–	–	34	–	22
